Assay results: patent US20170107254A1, “Modified Antimicrobial Peptides” (priority 2014, published 2017)

System: human red blood cells (hRBC)
Assay: Haemolysis of human red blood cells
Settings: lipid alone at 200 μg/ml

## CCCCCCCC(=O)O [Octanoic (C8), Octanoic]
  % Haemolytic Activity at 3 h: 35%
